SMILES strings stand for the structures.

Protein sequences, listed by entry. Tags and fused reporters are not part of them. Residues count along the entry.
UniProt P47871, 26-477 limits assumed: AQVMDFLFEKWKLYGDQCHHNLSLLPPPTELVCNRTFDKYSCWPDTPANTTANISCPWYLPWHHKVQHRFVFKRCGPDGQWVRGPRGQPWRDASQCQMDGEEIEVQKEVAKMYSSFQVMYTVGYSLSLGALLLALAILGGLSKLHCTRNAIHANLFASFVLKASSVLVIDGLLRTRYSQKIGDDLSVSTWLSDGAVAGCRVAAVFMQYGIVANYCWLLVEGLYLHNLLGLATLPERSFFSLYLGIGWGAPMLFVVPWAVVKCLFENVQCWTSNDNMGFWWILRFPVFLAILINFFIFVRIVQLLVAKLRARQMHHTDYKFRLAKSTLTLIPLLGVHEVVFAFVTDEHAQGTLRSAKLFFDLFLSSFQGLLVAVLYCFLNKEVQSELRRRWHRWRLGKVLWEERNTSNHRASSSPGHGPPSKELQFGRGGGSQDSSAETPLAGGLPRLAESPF

Test [1] deals with glucagon receptor (GCGR) overexpressed CHO-K1 cells or human primary hepatocytes (Homo sapiens, UniProt P47871). Kind of test: Glucagon cAMP inhibition assay (Cisbio cAMP Dynamic 2 HTRF). The conditions noted are these: read-out: IC50 cAMP.
The next test has as its target glucagon receptor (GCGR) (Homo sapiens, UniProt P47871). Kind of test: I125-glucagon binding assay (competition, GCGR membrane fractions). The conditions noted are these: read-out: IC50 binding.

The term IC50 denotes the concentration needed to halve the response being measured. For `CC(C)(C)c1ccc(-c2ccc(C[C@@H](Nc3ccc(C(=O)NCCC(=O)O)cc3)C(=O)Nc3ccc(C(F)(F)F)cc3)cc2)cc1`, the values for the IC50 (in test [1]; at glucagon receptor (GCGR)) were 252 nM and 126 nM, respectively.

The values are drawn from US11384060B2, “Amide compounds and use thereof” (ALPHALA CO., LTD., priority 2017, dated 2022).
